Literature values, collected in patent US20070197424A1, “Glatiramer acetate for use as an immuno-modulatory agent” (priority 2003, published 2007).

Experiments:
hepatocellular carcinoma = details: cited from earlier work
metastatic melanoma = details: IL-2 added to chemotherapeutic regimens, metastatic melanoma patients; cited from earlier work
[1] = 18 patients, 1 MIU/d subcutaneous until progression

Substance: Interleukin-2 [IL-2]
- complete responses (tumor resolution) (hepatocellular carcinoma; [1]): 11.1%
- median overall survival (hepatocellular carcinoma; [1]): 24.5 months
- median time to progression (hepatocellular carcinoma; [1]): 15.3 months
- overall response rate (hepatocellular carcinoma; [1]): 16.6%
- partial response (hepatocellular carcinoma; [1]): 5.5%
- patients progressed during therapy (hepatocellular carcinoma; [1]): 11.1%
- patients with stable disease lasting at least 4 months (hepatocellular carcinoma; [1]): 72.3%
- toxicity (hepatocellular carcinoma; human, in vivo): only local
- overall response rates (metastatic melanoma): up to 60%
